The source made the active and inactive calls. The rule behind the calls is not given here. Bounds are passed on as bounds.

Chains of the proteins cited; added tags and fusions are not shown. Lines headed by an entry give the natural chain unless they say otherwise; changes in a name come on top.
UniProt Q9Y5N1: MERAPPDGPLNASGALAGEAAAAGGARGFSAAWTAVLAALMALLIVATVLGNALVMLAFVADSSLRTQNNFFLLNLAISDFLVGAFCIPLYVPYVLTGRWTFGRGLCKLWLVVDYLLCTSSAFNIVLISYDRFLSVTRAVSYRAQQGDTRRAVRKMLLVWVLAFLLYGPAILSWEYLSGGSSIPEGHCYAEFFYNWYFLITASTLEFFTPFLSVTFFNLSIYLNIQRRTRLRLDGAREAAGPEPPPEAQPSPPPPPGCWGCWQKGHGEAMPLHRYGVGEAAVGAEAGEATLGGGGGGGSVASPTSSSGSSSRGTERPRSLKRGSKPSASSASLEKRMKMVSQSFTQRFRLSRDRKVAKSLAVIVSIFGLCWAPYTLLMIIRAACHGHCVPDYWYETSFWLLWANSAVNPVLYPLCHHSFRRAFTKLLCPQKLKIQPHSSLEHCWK
UniProt Q15910, whole entry, looked up: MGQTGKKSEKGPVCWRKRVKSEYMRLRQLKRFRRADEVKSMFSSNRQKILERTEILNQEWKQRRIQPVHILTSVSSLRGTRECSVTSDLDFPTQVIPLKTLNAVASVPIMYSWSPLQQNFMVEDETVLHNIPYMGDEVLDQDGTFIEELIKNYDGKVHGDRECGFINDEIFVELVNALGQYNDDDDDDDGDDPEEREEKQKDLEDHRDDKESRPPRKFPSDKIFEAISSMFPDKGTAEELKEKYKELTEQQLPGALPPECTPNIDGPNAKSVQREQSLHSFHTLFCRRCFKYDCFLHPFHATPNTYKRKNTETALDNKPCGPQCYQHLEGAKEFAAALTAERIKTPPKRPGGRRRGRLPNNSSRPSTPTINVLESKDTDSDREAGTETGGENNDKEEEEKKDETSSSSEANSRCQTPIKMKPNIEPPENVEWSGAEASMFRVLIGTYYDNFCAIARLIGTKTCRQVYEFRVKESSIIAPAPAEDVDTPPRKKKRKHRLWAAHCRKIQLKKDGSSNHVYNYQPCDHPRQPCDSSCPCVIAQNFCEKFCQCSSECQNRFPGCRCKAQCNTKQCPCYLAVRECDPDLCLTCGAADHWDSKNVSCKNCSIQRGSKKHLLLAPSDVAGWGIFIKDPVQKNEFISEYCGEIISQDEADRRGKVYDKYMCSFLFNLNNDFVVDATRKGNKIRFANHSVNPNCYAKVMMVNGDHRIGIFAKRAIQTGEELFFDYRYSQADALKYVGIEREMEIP
UniProt P21918, whole entry: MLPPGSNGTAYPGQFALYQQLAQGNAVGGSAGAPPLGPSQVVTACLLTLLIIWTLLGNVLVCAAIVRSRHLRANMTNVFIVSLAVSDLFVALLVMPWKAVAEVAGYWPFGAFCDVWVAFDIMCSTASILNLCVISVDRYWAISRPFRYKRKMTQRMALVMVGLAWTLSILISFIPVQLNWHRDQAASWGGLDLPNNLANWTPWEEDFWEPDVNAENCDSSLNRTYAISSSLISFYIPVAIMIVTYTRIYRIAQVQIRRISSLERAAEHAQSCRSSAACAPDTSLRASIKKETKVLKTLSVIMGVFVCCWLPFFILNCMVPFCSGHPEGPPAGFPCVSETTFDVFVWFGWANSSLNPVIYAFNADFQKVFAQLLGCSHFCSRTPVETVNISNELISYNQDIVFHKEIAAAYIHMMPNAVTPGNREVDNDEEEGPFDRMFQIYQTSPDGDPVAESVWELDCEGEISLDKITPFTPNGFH
UniProt P23975, whole entry: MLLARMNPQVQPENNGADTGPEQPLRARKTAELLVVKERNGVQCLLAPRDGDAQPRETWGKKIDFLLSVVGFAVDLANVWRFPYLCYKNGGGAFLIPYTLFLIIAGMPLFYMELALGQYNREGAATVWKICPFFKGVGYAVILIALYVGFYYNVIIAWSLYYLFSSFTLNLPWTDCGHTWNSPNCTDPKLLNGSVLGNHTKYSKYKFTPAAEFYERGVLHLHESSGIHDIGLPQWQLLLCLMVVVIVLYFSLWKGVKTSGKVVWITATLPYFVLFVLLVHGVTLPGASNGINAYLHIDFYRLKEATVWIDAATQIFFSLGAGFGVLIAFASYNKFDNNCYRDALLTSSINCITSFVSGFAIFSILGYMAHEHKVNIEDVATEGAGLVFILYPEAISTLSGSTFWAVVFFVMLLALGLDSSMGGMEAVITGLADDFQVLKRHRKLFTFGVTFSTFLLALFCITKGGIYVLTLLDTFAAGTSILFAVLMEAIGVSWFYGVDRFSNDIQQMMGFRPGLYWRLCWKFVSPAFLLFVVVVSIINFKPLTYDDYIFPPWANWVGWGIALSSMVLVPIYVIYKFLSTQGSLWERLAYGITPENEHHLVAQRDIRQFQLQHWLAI

The record followed here is ChEMBL document CHEMBL5705896 (ACS Chem Biol, 2013).

Assay [1] addresses T1, Histamine H3 receptor (Homo sapiens, UniProt Q9Y5N1). As to the kind of experiment: Antagonists activity at H3 receptor (unknown origin) at 1 uM.
The target in assay [2] is T1, Histamine H3 receptor. As to the kind of experiment: Inhibition of H3 receptor (unknown origin) at 10 uM by radioligand binding assay relative to control.
In assay [3] the target is T1, Histamine H3 receptor. As to the kind of experiment: Agonist activity at H3 receptor (unknown origin) at 1 uM. The assay is classed as functional.
Assay [4] has as its target Histone-lysine N-methyltransferase EZH2 (Homo sapiens, UniProt Q15910). As to the kind of experiment: Inhibition of EZH2 (unknown origin) at 10 uM relative to control.
Assay [5] deals with T2, Calcium/calmodulin-dependent protein kinase type IV (Homo sapiens) (UniProt Q16566).
T2 sequence (whole entry): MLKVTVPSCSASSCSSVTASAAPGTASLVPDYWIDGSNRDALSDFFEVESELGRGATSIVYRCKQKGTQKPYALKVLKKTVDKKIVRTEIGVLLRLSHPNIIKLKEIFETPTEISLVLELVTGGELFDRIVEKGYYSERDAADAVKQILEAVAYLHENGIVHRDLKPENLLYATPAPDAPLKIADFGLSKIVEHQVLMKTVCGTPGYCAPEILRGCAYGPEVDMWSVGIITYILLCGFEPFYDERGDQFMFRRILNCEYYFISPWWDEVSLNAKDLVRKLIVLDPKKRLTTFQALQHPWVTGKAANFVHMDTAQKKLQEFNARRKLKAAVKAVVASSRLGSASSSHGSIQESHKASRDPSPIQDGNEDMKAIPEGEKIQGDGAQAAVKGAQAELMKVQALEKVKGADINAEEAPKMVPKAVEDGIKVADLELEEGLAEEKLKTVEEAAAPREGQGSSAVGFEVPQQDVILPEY
As to the kind of experiment: Inhibition of full length human N-terminal GST tagged CaMK4 (1 to 473 end residues) expressed in baculovirus expression system using GS as peptide at 10 uM by mobility shift assay relative to control.

The target of assay [6] is D(1B) dopamine receptor (Homo sapiens) (UniProt P21918). As to the kind of experiment: Inhibition of dopamine D5 receptor (unknown origin) at 10 uM by radioligand binding assay relative to control.
The target in assay [7] is Sodium-dependent noradrenaline transporter (Homo sapiens, UniProt P23975). As to the kind of experiment: Inhibition of NET (unknown origin) at 10 uM by radioligand binding assay relative to control.

Consider `CCCc1cc(C)[nH]c(=O)c1CNC(=O)c1cc(-c2ccc(N3CCN(C(C)C)CC3)nc2)cc2c1cnn2C(C)C`, for which the result at Histamine H3 receptor [1] and on Histamine H3 receptor [3] was inactive. Further, the inhibition at Histamine H3 receptor [2] was 95%; in assay [4], > 20%; in assay [5] it was 20%; in assay [6], 20%; in assay [7], 83%.

A word on the inhibition: it is how much of the control response was suppressed.
